Measurements reported in patent US20220306659A1, “COMPOUND INHIBITING AND INDUCING DEGRADATION OF EGFR AND ALK” (BEIJING TIDE PHARMACEUTICAL CO., LTD., priority 2019, published 2022).

The chains behind the UniProt entries cited, without tags or fusion partners. A line that says so, or that is headed by a name, gives the form on record, which may keep a tag or linker.
UniProt P00533, whole entry T790M/C797S/L858R: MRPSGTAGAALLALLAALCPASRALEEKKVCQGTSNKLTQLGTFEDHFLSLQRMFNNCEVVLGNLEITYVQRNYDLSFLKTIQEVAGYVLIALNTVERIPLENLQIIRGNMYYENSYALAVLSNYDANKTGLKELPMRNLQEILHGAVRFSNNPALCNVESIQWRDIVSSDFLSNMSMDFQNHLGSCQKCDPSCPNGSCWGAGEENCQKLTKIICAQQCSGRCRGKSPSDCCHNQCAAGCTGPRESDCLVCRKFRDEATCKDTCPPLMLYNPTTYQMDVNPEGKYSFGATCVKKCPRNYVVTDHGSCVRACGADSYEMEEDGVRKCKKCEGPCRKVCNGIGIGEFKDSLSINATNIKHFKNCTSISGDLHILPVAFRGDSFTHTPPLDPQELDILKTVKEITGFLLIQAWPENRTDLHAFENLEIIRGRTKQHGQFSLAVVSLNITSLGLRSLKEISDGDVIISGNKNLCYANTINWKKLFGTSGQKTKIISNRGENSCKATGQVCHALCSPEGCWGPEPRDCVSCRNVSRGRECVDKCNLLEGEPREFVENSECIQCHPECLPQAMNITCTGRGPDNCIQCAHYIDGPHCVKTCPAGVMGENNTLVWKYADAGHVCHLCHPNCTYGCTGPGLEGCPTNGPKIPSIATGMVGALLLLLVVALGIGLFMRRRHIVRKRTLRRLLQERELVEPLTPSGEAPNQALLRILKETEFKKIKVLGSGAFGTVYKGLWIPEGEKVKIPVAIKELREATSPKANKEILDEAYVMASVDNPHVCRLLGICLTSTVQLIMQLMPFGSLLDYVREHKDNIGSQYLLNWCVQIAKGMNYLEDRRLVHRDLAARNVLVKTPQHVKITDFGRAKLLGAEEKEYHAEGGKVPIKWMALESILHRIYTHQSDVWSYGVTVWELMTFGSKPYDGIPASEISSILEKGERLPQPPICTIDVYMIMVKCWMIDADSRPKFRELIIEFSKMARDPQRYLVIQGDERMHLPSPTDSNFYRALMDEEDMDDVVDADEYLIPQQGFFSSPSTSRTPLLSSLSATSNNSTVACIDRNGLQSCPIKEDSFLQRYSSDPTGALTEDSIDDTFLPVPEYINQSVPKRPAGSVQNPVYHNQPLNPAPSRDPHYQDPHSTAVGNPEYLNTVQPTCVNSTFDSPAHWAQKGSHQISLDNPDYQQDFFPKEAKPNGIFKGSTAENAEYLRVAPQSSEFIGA
UniProt P00533, with tags, fused parts or gaps C797S/DEL746-750/T790M: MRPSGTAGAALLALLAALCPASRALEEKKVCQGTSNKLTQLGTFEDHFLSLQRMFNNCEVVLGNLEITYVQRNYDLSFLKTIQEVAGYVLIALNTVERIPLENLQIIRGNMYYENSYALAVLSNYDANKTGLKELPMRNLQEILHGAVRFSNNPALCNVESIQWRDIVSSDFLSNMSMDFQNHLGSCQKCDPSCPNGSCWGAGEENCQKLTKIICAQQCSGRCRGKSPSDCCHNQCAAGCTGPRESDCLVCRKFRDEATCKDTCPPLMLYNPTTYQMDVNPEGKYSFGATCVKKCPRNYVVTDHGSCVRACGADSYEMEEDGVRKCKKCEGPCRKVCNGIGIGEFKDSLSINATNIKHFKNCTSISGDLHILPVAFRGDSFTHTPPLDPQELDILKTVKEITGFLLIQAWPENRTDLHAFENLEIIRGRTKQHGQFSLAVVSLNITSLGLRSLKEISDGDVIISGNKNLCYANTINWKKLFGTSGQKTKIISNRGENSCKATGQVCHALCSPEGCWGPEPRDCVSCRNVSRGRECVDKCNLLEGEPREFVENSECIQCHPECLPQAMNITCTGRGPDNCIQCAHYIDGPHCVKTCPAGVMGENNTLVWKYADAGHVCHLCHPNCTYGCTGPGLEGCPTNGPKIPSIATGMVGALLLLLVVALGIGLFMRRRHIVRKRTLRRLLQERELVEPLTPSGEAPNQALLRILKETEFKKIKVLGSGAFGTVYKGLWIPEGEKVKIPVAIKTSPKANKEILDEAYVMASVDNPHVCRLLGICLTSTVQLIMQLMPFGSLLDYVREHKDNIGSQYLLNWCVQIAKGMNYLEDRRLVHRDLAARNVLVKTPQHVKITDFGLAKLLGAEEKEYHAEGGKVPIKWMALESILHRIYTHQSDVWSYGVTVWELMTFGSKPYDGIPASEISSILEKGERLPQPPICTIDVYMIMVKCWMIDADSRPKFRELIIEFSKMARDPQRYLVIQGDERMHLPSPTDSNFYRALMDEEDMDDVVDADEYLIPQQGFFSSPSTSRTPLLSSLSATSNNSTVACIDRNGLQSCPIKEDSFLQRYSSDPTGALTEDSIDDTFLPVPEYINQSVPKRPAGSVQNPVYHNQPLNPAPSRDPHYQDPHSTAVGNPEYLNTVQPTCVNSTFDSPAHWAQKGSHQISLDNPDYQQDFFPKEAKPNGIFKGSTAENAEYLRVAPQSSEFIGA
UniProt Q9UM73, whole entry: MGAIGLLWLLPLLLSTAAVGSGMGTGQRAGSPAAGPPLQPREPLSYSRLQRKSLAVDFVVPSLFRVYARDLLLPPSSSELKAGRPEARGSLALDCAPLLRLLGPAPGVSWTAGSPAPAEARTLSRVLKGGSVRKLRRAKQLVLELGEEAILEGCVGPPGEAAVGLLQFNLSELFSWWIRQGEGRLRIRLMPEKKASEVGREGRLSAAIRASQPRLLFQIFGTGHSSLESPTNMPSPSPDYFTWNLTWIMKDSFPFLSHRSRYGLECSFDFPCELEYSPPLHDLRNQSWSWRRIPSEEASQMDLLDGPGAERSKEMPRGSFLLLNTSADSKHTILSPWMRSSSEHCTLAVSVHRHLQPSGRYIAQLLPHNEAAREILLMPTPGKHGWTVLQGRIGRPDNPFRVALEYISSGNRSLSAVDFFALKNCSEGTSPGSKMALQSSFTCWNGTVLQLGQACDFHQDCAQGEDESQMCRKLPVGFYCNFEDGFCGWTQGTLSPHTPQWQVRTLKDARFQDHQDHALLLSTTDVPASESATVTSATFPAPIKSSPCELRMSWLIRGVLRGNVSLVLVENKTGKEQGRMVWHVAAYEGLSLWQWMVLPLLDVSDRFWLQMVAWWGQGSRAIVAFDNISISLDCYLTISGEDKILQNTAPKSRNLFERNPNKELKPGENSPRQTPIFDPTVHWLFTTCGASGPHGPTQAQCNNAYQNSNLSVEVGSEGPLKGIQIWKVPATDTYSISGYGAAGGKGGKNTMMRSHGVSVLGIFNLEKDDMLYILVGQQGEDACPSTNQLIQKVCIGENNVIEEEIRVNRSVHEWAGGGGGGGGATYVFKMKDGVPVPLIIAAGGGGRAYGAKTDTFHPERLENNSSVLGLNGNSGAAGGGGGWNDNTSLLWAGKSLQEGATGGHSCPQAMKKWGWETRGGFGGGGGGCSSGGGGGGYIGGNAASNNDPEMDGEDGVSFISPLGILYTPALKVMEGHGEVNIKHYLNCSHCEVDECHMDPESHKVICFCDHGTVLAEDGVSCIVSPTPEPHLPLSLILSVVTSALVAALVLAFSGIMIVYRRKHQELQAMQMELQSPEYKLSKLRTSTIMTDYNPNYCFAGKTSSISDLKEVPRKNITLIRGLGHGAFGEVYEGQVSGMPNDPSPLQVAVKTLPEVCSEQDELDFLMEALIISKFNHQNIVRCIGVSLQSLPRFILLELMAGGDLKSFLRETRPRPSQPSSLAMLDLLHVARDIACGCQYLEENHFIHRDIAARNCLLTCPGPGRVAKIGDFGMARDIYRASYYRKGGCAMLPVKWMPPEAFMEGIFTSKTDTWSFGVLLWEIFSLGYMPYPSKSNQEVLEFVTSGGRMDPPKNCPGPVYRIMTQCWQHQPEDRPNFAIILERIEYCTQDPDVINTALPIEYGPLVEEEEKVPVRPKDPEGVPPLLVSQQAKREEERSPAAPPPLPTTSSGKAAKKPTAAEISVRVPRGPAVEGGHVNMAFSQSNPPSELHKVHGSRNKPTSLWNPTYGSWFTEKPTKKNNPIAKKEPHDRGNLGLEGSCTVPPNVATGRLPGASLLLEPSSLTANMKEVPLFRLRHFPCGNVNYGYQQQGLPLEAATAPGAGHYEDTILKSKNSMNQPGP

What was measured:
Type in all cases: cell-based
[1] = biological target: Ba/F3(EGFR^Del19/T790M/C797S) cells (Homo sapiens, UniProt P00533, DEL746-750/T790M/C797S, cells depend on it); test: Assay of activity on Ba/F3 cells (CTG, 72 h); conditions: read-out: IC50 (nM) Ba/F3 (EGFR^Del19/T790M/C797S)
[2] = biological target: Ba/F3(EGFR^L858R/T790M/C797S) cells (Homo sapiens, UniProt P00533, T790M/C797S/L858R, cells depend on it); test: Assay of activity on Ba/F3 cells (CTG, 72 h); conditions: read-out: IC50 (nM) Ba/F3 (EGFR^L858R/T790M/C797S)
[3] = biological target: Ba/F3(EML4-ALK) cells (Homo sapiens, UniProt Q9UM73); test: Assay of activity on Ba/F3(EML4-ALK) cells (CTG, 72 h); conditions: read-out: IC50 (nM) Ba/F3(EML4-ALK)

| SMILES | GI50 [1] [nM] | GI50 [2] [nM] | GI50 [3] [nM] |
| --- | --- | --- | --- |
| COc1cc(N2CCC(N3CCN(CCOCC#Cc4cccc5c4CN(C4CCC(=O)NC4=O)C5=O)CC3)CC2)c(C)cc1Nc1ncc(Br)c(Nc2ccc3nccnc3c2P(C)(C)=O)n1 (centres unmarked) | 1 to 100 | 1 to 100 | – |
| COc1cc(N2CCC3(CCNCC3)CC2)c(C)cc1Nc1ncc(Br)c(Nc2ccc3nccnc3c2P(C)(C)=O)n1 | – | 101 to 200 | – |
| COc1cc(N2CCC3(CCN(CCCCCC#Cc4cccc5c4C(=O)N(C4CCC(=O)NC4=O)C5=O)CC3)CC2)c(C)cc1Nc1ncc(Br)c(Nc2ccc3nccnc3c2P(C)(C)=O)n1 (centres unmarked) | 1 to 100 | – | 101 to 200 |
